Data published in US20250034138A1, “Compounds and Compositions as C-Kit Kinase Inhibitors” (Enanta Pharmaceuticals, Inc., priority 2023, published 2025).

Sequences of proteins named here, by UniProt entry; tags and fusion partners are left off. Residues count along the entry.
UniProt P10721, 26-976 limits assumed: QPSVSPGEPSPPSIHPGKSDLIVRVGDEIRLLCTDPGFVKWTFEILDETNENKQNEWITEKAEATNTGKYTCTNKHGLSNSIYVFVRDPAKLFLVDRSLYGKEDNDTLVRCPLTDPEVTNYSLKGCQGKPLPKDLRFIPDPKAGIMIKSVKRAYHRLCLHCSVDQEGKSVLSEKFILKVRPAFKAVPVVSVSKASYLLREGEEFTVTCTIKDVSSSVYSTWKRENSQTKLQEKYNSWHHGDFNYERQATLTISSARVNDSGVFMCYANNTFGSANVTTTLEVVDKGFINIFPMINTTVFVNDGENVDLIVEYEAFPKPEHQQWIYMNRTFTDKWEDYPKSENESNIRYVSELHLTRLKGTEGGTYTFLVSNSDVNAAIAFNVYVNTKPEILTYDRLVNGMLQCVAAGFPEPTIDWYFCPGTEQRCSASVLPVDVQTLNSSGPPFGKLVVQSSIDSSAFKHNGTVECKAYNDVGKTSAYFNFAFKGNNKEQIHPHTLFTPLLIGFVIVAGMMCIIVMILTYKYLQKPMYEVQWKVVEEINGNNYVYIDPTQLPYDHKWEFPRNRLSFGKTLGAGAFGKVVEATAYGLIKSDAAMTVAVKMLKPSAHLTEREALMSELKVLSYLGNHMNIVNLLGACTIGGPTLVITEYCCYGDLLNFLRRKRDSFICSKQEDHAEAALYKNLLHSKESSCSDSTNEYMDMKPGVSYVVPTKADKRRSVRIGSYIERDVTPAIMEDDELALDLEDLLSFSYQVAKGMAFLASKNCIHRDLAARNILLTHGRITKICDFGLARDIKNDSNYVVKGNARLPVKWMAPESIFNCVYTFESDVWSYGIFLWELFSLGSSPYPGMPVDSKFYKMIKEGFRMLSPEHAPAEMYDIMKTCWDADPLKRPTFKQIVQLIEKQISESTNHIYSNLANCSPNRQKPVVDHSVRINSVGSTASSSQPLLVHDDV

How the values were obtained:
[1] = biological target: Recombinant human c-KIT kinase (Homo sapiens, UniProt P10721); test: c-KIT Kinase Chemiluminescence Assay (ADP-Glo); details: read-out: c-Kit IC50; recombinant human c-KIT 30-40 nM, ATP 50 μM, polyEY substrate, ADP-Glo luminescence
Excerpt: Staurosporine (AM-2282) and Imatinib (STI571) were purchased from Selleck Chemicals LLC (Houston, TX). The c-KIT reference compound THB001 (EP-053504) was synthesized by Enanta Pharmaceuticals, Inc. (Watertown, MA). The c-KIT Kinase Enzyme System (V4498) and ADP-Glo™ Kinase Assay kit (V6930) were purchased from Promega (Madison, WI). DMSO (D2650) was purchased from Sigma-Aldrich (Burlington, MA). ECHO-650 acoustic liquid handling system (67492212) and 384-well LDV ECHO source plates (LP-0200) were purchased from Labcyte, Inc (San Jose, CA). Envision Multimode Plate Reader (2104/464466) and ProxiPlate-384 Plus White 384-shallow well microplates (6008280) were purchased from PerkinElmer (Waltham, MA).
1. c-KIT Kinase Chemiluminescence Assay:
IC50 determination. Test compounds were dispersed into a 384-well low volume while ProxiPlate microplate from a DMSO solution using an ECHO 650 acoustic dispenser to generate a 11-point, 3.162-fold dilution, concentration curve starting at 10 μM in duplicate. Kinase Reaction: The kinase assay was based on the recommended protocol by c-KIT Kinase Enzyme System from Promega. […] Kinase activity was measured as increase in luminescence at RT in an Envision plate reader equipped with 560 nm filters and operating in endpoint mode. […]

[2] = test system: M-07e cells which endogenously express human c-KIT; test: M-07e Cellular Assay (SCF-mediated cell proliferation, CellTiter Glo); format: cell-based; details: read-out: M-07e EC50, SCF (EC90)-stimulated M-07e cell proliferation, 72 hours
Experimental: 2. M-07e Cellular Assay M-07e cells (Creative Bioarray, CSC-CO249) which endogenously express human c-KIT were used to evaluate the effect of compounds on stem cell factor (SCF)-mediated cell proliferation. M-07e cells were cultured in growth media (RPMI+10% FBS+1% penicillin/streptomycin+10 ng/mL GM-CSF) at 5E5-1.5E6 cells/mL, replenishing media every 3-4 days. 1.5E4 cells were seeded per well in 384 well tissue culture treated plates in 20 μL assay media (RPMI+10% FBS+1% penicillin/streptomycin) without growth factor stimulation and incubated at 37° C. in a CO2 humidity-controlled incubator. Twenty-four hours later, three-fold serially diluted test compounds in media containing SCF (at the previously determined EC90) were added to the plated M-07e cells and incubated for an additional 72 hours. Cell viability was determined by adding 25 μL CellTiter Glo (Promega) to the cells and the luminescence was measured using a Perkin Elmer Envision plate reader. The EC50 was determined using GraphPad Prism. […] EC50 ranges are reported as follows: […]

Row | IC50 [1] [µM] | Structure (SMILES) | EC50 [2] [nM]
1 | 0.1 to 1 | Cc1ccc(-c2nc3n(n2)C[C@@H](C(F)(F)F)CC3)cc1NC(=O)c1cnc2ccccn12 | < 100
2 | 0.1 to 1 | Cc1ccc(-c2nc3n(n2)[C@H](c2ccccc2)C[C@@H]3F)cc1NC(=O)c1cnc2ccccn12 | > 1000
